Assay: Selectivity ratio of IC50 for Trypanosoma brucei rhodesiense STIB900 to IC50 for Plasmodium falciparum K1
Assay type: functional

For `N=C(N)c1ccc(-c2cnc(-c3ccc(C(=N)N)cc3)cn2)cc1`, the Ratio IC50 was 45.

— ChEMBL document CHEMBL2440077, “Synthesis and antiprotozoal activity of dicationic 2,6-diphenylpyrazines and aza-analogues” (Bioorg Med Chem, 2013)
